From PMC8286831, “Identifying SARS-CoV-2 antiviral compounds by screening for small molecule inhibitors of nsp13 helicase” (Biochemical Journal, 2021)

Target: SARS-CoV-2 nsp13 helicase (Severe acute respiratory syndrome coronavirus 2, UniProt P0DTD1)
Assay type: biochemical
Conditions: read-out: IC50 No detergent

O=C(Nc1cccc(C(=O)Nc2ccc(S(=O)(=O)[O-])c3cc(S(=O)(=O)[O-])cc(S(=O)(=O)[O-])c23)c1)Nc1cccc(C(=O)Nc2ccc(S(=O)(=O)[O-])c3cc(S(=O)(=O)[O-])cc(S(=O)(=O)[O-])c23)c1.[Na+].[Na+].[Na+].[Na+].[Na+].[Na+] [NF 023]
IC50: 1.1 µM
